{"source": "patent US20120309709A1", "about": "“Ion-Channel Regulator Compositions and Methods of Using Same” (priority 2007, published 2012)", "key": {"[1]": {"system": "Ca^2+ currents in HIG-82 cells", "experiment": "cells", "conditions": "read-out: EC50, inhibition of calcium current"}, "[2]": {"system": "Ca^2+ currents in HIG-82 cells"}}, "note": "Read-outs that look alike come from different tables or passages of the source."}
{"smiles": "COc1ccc([C@@H]2Sc3ccccc3N(CCN(C)C)C(=O)[C@@H]2OC(C)=O)cc1", "note": "[diltiazem]", "values": [{"measurement": "EC50", "setting": "[1]", "value": 12.8, "unit": "µg/mL"}, {"measurement": "block of calcium current", "setting": "[2]; membrane potential 0 mV, added separately", "value": "blocked the current almost completely"}, {"measurement": "block of calcium current", "setting": "[2]; membrane potential −50 mV, single blocker 100 μM", "value": "neither verapamil nor diltiazem could block the current completely"}]}
